Source: US11535611B2, “Pyrazolo[3,4-B]pyridines and imidazo[1,5-B]pyridazines as PDE1 inhibitors” (H. Lundbeck A/S, priority 2017, dated 2022)

By UniProt entry, the sequences of proteins in these tests, tags left out.
UniProt Q01064, whole entry: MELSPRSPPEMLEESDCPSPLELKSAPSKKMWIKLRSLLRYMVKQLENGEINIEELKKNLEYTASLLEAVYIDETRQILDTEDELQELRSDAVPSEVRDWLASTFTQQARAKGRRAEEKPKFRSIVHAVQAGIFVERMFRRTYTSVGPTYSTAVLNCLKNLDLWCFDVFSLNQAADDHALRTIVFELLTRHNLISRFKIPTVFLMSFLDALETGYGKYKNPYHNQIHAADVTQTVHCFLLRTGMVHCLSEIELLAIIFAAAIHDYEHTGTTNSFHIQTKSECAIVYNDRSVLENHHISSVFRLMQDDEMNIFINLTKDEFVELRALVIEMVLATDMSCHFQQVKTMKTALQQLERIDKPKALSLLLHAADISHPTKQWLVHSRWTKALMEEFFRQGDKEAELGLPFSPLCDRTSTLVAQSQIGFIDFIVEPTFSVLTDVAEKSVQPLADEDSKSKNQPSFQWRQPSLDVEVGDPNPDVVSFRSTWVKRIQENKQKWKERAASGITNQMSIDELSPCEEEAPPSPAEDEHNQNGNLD
UniProt P54750, whole entry: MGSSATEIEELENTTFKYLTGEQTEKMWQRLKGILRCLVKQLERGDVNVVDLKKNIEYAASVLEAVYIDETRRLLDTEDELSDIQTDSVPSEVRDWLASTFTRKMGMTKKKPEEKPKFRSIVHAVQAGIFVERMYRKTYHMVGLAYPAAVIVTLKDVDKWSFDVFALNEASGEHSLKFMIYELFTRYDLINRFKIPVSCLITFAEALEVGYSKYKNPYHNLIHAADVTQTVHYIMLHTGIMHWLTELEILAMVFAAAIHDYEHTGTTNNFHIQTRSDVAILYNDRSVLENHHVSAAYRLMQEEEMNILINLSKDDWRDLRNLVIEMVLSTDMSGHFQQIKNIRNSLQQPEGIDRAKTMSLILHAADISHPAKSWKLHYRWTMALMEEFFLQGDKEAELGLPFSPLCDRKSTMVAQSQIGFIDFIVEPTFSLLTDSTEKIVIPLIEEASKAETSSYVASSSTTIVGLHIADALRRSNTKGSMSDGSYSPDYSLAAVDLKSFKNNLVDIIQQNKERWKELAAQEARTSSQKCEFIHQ
UniProt Q14123, whole entry: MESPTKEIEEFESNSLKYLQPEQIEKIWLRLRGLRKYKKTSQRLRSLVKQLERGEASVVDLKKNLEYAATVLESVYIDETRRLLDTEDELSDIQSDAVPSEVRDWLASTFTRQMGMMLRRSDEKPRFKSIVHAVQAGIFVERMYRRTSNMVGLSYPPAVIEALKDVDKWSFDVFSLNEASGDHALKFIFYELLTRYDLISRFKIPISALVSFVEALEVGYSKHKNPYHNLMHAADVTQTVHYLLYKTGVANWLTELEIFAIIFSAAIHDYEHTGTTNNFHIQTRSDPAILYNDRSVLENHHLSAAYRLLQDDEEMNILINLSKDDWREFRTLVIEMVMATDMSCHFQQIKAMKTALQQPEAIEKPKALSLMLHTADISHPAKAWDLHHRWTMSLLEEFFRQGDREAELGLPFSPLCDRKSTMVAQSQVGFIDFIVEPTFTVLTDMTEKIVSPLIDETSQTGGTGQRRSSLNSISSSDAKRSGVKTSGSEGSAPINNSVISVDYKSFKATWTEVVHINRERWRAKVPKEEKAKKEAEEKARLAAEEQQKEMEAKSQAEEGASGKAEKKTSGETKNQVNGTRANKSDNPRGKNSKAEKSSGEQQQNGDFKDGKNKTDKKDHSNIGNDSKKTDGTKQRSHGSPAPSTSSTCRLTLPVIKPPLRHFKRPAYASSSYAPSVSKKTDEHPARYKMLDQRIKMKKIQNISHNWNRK

How the values were obtained:
PDE1B = PDE1B (Homo sapiens (Human), UniProt Q01064); test: PDE1 inhibition assay, PDE1B; details: read-out: PDE1 B, IC50; 15 nM tritium labelled cAMP, 1 hr at room temperature, SPA beads
PDE1A = PDE1A (Homo sapiens (Human), UniProt P54750); test: PDE1 inhibition assay, PDE1A; format: biochemical; details: @ 10 μM compound
PDE1C = PDE1C (Homo sapiens (Human), UniProt Q14123); test: PDE1 inhibition assay, PDE1C; format: biochemical; details: read-out: PDE1 C, IC50; 15 nM tritium labelled cAMP, 1 hr at room temperature, SPA beads

In the case of `CCOc1cncc(-c2cc(N[C@@H]3CCOC3)c3c(cnn3C(C)C)n2)c1`, the IC50 (PDE1B) is reported as 1570 nM, the “PDE1 A, % inhibition @ 10 μM” value (PDE1A) is reported as 51% and the IC50 (PDE1C) is reported as 2920 nM.
